Measurements: patent US20170051112A1, “RESIN COMPOSITION SUITABLE FOR PRINTING AND PRINTING METHOD UTILIZING THE SAME” (MONTANUNIVERSITÄT LEOBEN, priority 2014, published 2017)

What was measured:
[1] = system: L929 mice fibroblast cells; assay: Cytotoxicity (residual protein content of the cells); type: cell-based; settings: toxicological concentration limit: reduction of protein content of L929 cells by more than 30% relative to negative control; incubation 48 h
Method: The cytotoxicity of various monomers was determined by a certified laboratory by means of L929 mice fibroblast cells. As a (toxic) positive control, Triton X 100 was added to L929 cells with a final concentration of 1% (v/v). As a (non-toxic) negative control, a cell culture medium was used.
After completion of the incubation, the residual protein content of the cells was determined. A reduction of the protein content from L929 cells by more than 30%, relative to the negative control, was evaluated as cytotoxic (which corresponds to the toxicological concentration limit). From this, the half maximal effective concentration (EC50), at which 50% of the cells are damaged, can be calculated.

[2] = Measurement of viscosity (cone-and-plate viscosimeter); type: physicochemical
Method: For measuring the viscosity, an MC 200 cone-and-plate viscosimeter from Anton Paar GmbH (cone unit MK 22/50 mm, 10) was used. First, the shear rate was varied with a stepped slope and subsequently the viscosity was determined at a constant shear rate (300 s^−1) every 30 seconds. The measurement was carried out at 25° C.

1,4-butanediol dipropargyl carbonate
Concentration limit [1]: >300 µM | Viscosity, in words ([2]; 25° C.): significantly higher viscosity | Viscosity at 25° C. ([2]; constant shear rate 300 s^-1, 25° C.): 44.2 mPa*s
